Results on 1 molecule are retold here after ChEMBL document CHEMBL2062373, “Discovery of pyrroloaminopyrazoles as novel PAK inhibitors” (J Med Chem, 2012).

By UniProt entry, the sequences of proteins in these tests, tags left out. Where a name states a change or a piece, a line headed by the entry shows the natural chain unless it says otherwise.
UniProt O96013: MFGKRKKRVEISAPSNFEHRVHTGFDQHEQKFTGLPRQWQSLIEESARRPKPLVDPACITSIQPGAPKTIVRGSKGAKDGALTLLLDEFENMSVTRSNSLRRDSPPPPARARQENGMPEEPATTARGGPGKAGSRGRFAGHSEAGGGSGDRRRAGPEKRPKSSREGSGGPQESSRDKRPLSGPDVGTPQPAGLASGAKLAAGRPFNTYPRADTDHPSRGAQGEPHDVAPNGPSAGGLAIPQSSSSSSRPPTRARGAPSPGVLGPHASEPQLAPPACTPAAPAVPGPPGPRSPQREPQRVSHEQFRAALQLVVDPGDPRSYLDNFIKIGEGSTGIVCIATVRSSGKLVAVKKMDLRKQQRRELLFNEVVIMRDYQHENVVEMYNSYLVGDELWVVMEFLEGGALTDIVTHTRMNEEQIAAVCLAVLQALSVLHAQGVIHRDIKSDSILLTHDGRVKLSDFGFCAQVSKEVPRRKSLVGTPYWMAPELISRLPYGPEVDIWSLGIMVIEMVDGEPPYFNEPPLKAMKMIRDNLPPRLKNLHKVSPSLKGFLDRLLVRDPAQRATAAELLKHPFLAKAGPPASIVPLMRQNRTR

This experiment addresses Serine/threonine-protein kinase PAK 4 (Homo sapiens, UniProt O96013). Put plainly: Inhibition of PAK4.

As a reminder, the Ki is the equilibrium dissociation constant of an inhibitor or competing ligand from its target.

Structures are written as SMILES.

Turning to `CN1CCN(C(=O)N2Cc3c(NC(=O)c4cccc(Oc5ccccc5)c4)n[nH]c3C2(C)C)[C@@H](Cc2ccccc2)C1`, the Ki came out at 64 nM.
